## AlphaSeq binding of Ab-14 light chain variants to a spike HR2 peptide

Target peptide (SARS-CoV-2 spike, HR2 region): PDVDLGDISGINAS

The variants keep the heavy chain, the linker and the frameworks of Ab-14 (scFv order VH, the linker GGGGSGGGGSGGGGS, VL).
VH: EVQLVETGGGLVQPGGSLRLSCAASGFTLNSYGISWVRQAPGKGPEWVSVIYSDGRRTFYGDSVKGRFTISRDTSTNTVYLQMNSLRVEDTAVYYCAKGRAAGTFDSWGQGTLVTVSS
VL: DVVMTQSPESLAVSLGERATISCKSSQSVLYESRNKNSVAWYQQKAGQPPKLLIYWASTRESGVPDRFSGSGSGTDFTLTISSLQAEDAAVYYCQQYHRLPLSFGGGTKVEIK

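The parent was found by panning a naive human phage display library on the peptide. The library (AAYL50) carries one to three amino acid substitutions per variant, with no insertions or deletions. The assay is AlphaSeq: two haploid yeast populations carry antibody and antigen on their surface. After mating in shaken culture at 30 °C for 16 h, diploids were selected and their barcode pairs sequenced. Read counts were normalised to the haploid input and turned into Kd by a linear fit to BCL2-family pairs of known affinity, for each replicate. Each pool was mated in three replicate cultures.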

Positions count from residue 1 of the parent VL; S26M puts M in place of S.
The read-out is the apparent dissociation constant on a log10 scale (nM): the lower, the stronger.
"ND" marks a missing value. The strain was present, yet no cells mated with the target were sequenced in that replicate, which points to weak or no binding.

changes	log10 Kd (nM) by replicate
S26M S33G R34D	0.82 0.90 0.77
R34Q A57M Q96R	ND ND ND
Q27S E61G Q96Y	1.79 2.14 2.25
Q27A P101V L102A	2.51 1.78 1.83
S33R N35I A57N	ND ND ND
K24V Q95Y H98P	4.97 ND ND
S26N A40K S58P	ND ND ND
Q27S E32D S58Q	0.48 0.85 0.81
Y31G N37F L100V	ND 3.04 6.05
K24I E32F W56N	-0.04 0.37 0.10
S28P S62Y H98L	2.25 2.03 2.50
K24W Q27V Y97L	3.15 ND ND
S28D R34W P101G	1.56 1.45 1.77
S33V V39K Q96W	ND 3.92 ND
S26E Q27M S103M	0.97 0.93 1.01
S25A P101E L102W	ND 2.72 ND

Second part, the sequence after the result:

log10 Kd (nM) by replicate	changes
ND ND ND	Q27M E32Q A57W
4.26 4.19 4.31	A40I E61V Q95K
1.92 1.78 1.92	L30V H98Y L100I
2.61 ND ND	K24V V29K P101F
1.42 1.29 1.42	Q27T Y31N E61C
ND ND ND	S28L V29Q R99P
1.41 1.67 1.55	L100N S103L
ND ND ND	S28M A57D S103Q
0.69 1.01 1.03	S28T S33G N35K
ND ND ND	K24S N37D R60W
1.20 1.41 1.36	V29D Q96G L100H
1.41 1.38 1.63	K24V W56A S58I
2.58 2.15 3.56	S26F Q27P S33W
ND ND ND	R34A S62D H98M
0.41 0.60 0.46	S33A W56N L100W
3.97 ND ND	S26F R60G S103Q

Repeated from above, the 5 best binders with a signal in all replicates:

{"changes": "K24I E32F W56N", "log10 Kd (nM) by replicate": "-0.04 0.37 0.10"}
{"changes": "S33A W56N L100W", "log10 Kd (nM) by replicate": "0.41 0.60 0.46"}
{"changes": "Q27S E32D S58Q", "log10 Kd (nM) by replicate": "0.48 0.85 0.81"}
{"changes": "S26M S33G R34D", "log10 Kd (nM) by replicate": "0.82 0.90 0.77"}
{"changes": "S28T S33G N35K", "log10 Kd (nM) by replicate": "0.69 1.01 1.03"}

For reference, the parent read 0.65 as the reference entry and 1.68 as a member of this library.
Background: pairings of library AAYL50 with three empty control strains gave a value in 18% of cases (median 4.19, 5th percentile 2.99). Values in that range, when seen in few replicates, are hard to tell from nonspecific mating.

Values reported by Engelhart et al. 2022, doi:10.1038/s41597-022-01779-4 (FLAb copy).